Results on four molecules are retold here after ChEMBL document CHEMBL6083281, “Development of a Fluorescence Probe for High-Throughput Screening of Allosteric Inhibitors Targeting TRAP1” (J Med Chem, 2024).

Molecules are shown by their SMILES.

In the experiment the target is T1, Heat shock protein 75 kDa, mitochondrial (Homo sapiens) (UniProt Q12931).
T1 sequence (whole entry): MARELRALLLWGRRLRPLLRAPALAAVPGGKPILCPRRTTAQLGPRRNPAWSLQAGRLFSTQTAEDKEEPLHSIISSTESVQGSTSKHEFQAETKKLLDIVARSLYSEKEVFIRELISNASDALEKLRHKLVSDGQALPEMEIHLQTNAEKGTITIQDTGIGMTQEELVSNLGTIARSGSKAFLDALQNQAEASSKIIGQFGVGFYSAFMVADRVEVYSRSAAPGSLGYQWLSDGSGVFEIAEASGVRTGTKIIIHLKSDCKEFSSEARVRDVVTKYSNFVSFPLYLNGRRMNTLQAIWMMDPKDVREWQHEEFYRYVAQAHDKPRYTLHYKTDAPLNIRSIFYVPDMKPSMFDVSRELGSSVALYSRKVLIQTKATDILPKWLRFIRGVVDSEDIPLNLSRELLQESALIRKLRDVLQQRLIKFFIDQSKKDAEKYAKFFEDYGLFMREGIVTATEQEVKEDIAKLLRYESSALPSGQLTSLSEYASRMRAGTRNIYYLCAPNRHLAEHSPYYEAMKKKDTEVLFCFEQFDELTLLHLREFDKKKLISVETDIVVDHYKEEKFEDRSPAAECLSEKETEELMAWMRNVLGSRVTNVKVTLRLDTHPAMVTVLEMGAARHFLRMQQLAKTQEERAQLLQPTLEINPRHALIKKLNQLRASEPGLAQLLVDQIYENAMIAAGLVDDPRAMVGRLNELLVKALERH
As to conditions: dose 100.0 nM, time 2.0 hrs.
In turn, `CCN(CC)c1ccc2c(-c3ccccc3C(=O)N(C)CCCCCC[P+](c3ccccc3)(c3ccccc3)c3ccccc3)c3ccc(=[N+](CC)CC)cc-3oc2c1` came in with a Bmax (millipolarization) of 101.

Molecule `CN(CCCCCC[P+](c1ccccc1)(c1ccccc1)c1ccccc1)C(=O)c1ccccc1C1=c2cc3c4c(c2Oc2c1cc1c5c2CCCN5CCC1)CCC[N+]=4CCC3` had a Bmax (millipolarization) of 201.

`CCN(CC)c1ccc2c(-c3ccccc3C(=O)N(C)CCCCCCCC[P+](c3ccccc3)(c3ccccc3)c3ccccc3)c3ccc(=[N+](CC)CC)cc-3oc2c1`: the Bmax (millipolarization) came to 326.

The molecule `CN(CCCCCCCC[P+](c1ccccc1)(c1ccccc1)c1ccccc1)C(=O)c1ccccc1C1=c2cc3c4c(c2Oc2c1cc1c5c2CCCN5CCC1)CCC[N+]=4CCC3` gave a Bmax (millipolarization) of 203.
